{
  "source": "patent EP0603412A1",
  "about": "“COMPOUNDS BASED ON PALLADIUM AND ON DERIVATIVES OF AROMATIC AMINES AND METHOD OF OBTAINING THEM” (priority 1992, dated 1993)",
  "test_system": "male hybrid mice F₁(CBAxC₅₇BL)",
  "assay": "Radiomodifying effect under single total γ-irradiation (survival, LD50/8, LD50/30, DCF)",
  "type": "in vivo",
  "method": "About two thousands animals have been used in tests.\nBefore irradiation control group of animals was intravenously administered isotonic saline solution in amount of 0.3 ml per mouse.\nThe mice were placed into the glass containers inserted into irradiation zone. The radiation sources were arranged in the form of \"squirrel cage\". The radiation doses were established by duration of the stay in active zone. […] The animals were irradiated in the range from 4.0 to 10 Gr.\nA survival rate was determined on the 8th and 30th day of observation. From the data obtained were derived the curves illustrating a dependence of the survival rate upon a radiation dosage on a percentage basis. LD50/8 and LD50/30 values were estimated by extrapolation to the dosage scale.\nA radiomodifying effect was evaluated by a dose change factor (DCF) calculated from the ratio of LD₅₀ in test to LD₅₀ in control.",
  "data": [
    {"substance": "N-methyl-N-(1-phenyl-1-hydroxy-prop-2-yl)ammonium palladium tetrachloride [Ephazole]", "values": [
      {"measurement": "radiomodifying influence", "setting": "administering 4 hours before irradiation", "result": "freedom from radiomodifying influence"},
      {"measurement": "radiomodifying effect", "setting": "within 6 hours after irradiation", "result": "full absence"}
    ]}
  ]
}
